# Measured values: US9127233B2, “Device and method for solubilizing, separating, removing and reacting carboxylic acids in oils, fats, aqueous or organic solutions by means of micro-or nanoemulsification” (priority 2010, dated 2015)
# Assay: pH of aqueous solution of solubilizing compound mixed with oleic acid
# Assay type: physicochemical
# Conditions: solubilizing compound in water with 0.833 mol equivalents of oleic acid
substance,measurement,value
Poly-L-arginine HCl [Poly-L-arginine HCl (70.000-150.000 MW)],pH,11.37
